Data on 1 compound can be found in ChEMBL document CHEMBL3758122, “Multitarget opioid ligands in pain relief: New players in an old game” (Eur J Med Chem, 2016).

Structures are written as SMILES.

In general, ED50 refers to the dose that gives a 50% effect, or the effect in half of the subjects.

The subject of this data set is Mus musculus. The data set can be described thus: Toxicity in sc dosed Kunming mouse assessed as sedation by rotarod test. In kind it is organism-based. To be noted: in vivo. (In the rotarod test animals must keep their balance on a rotating rod.)

Consider `CN(C(=O)Cc1ccc(Cl)c(Cl)c1)C1CCCCC1N1CCCC1.CS(=O)(=O)O` (stereo unspecified), for which the ED50 is 3.32 mg/kg.
